In ChEMBL document CHEMBL4321789, “Hydroxyl Groups in Synthetic and Natural-Product-Derived Therapeutics: A Perspective on a Common Functional Group” (J Med Chem, 2019):

Biological target: Type-1 angiotensin II receptor (Homo sapiens, UniProt P30556)
Assay: Inhibition of ATR1 (unknown origin)

## CCCCc1nc(Cl)c(C(=O)O)n1Cc1ccc(-c2ccccc2-c2nn[nH]n2)cc1 [CARBOXYLIC ACID METABOLITE]
  IC50: 2 nM
